Assay results published in ChEMBL document CHEMBL4406837, “Cyclin dependent kinase (CDK) inhibitors as anticancer drugs: Recent advances (2015-2019)” (Bioorg Med Chem Lett, 2019).

Sequences of proteins named here, by UniProt entry; tags and fusion partners are left off. A change or cut given only in a name is not applied to a line headed by its entry.
UniProt P51946: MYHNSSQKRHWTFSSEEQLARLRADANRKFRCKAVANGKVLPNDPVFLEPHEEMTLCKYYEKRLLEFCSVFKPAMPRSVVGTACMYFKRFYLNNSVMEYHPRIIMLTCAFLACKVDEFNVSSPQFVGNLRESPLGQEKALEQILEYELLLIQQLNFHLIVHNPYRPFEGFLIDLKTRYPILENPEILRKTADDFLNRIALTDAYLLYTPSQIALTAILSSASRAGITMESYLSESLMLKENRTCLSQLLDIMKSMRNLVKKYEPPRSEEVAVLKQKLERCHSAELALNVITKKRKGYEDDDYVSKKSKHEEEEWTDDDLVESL
UniProt P50613: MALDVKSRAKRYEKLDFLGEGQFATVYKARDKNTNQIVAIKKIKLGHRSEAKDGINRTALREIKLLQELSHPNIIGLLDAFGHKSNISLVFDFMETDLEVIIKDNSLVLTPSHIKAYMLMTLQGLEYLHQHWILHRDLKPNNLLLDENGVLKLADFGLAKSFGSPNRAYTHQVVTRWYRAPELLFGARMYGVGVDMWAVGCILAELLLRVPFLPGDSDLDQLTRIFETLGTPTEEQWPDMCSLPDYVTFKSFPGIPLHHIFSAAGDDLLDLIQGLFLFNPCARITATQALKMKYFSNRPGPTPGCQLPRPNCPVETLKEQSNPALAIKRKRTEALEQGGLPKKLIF
UniProt P51948: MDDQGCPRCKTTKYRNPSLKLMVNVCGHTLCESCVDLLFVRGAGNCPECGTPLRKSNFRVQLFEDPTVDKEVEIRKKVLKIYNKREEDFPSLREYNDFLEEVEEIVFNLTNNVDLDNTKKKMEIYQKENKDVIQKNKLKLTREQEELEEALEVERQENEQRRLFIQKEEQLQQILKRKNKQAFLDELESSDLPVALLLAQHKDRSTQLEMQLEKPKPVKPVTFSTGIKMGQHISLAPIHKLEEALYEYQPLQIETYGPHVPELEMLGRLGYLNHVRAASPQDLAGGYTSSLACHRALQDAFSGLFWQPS

Columns and labels:
[1] = target: T1, CDK7/Cyclin H/MNAT1 (Homo sapiens) (UniProt P51946+P50613+P51948); assay: Competitive irreversible inhibition of CDK7/cyclinH/MAT1 (unknown origin) assessed as inactivation constant using 5-FAM YSPTSPSYSPTSPSYSPTSPSKKKK as substrate; assay type: protein-complex assay
[2] = target: T1, CDK7/Cyclin H/MNAT1 (Homo sapiens); assay: Ratio of Ki CDK7/cyclinH/MAT1 (unknown origin) to Kinact CDK7/cyclinH/MAT1 (unknown origin) assessed as inactivation constant; assay type: protein-complex assay

CN(C)C/C=C/C(=O)Nc1ccc(C(=O)N[C@@]2(C)CCC[C@@H](Nc3ncc(Cl)c(-c4c[nH]c5ccccc45)n3)C2)nc1
Kinact [1]: 8.2 h⁻¹
Ratio [2]: 0.131 µM⁻¹ s⁻¹
